# Results: ChEMBL document CHEMBL1123122
# Activity calls are given as the source filed them. The rule behind the calls is not given here.
# Species: Rattus norvegicus
# Test: The compound was evaluated for the morphine-like behavioral effects. '--' indicates decrease in the locomotor activity.
structure (smiles),measurement,value
C=CCN1CC[C@]23c4c5ccc(O)c4O[C@H]2C(=O)CC[C@@]3(O)[C@H]1C5,Activity,Active
